This note sets out measurements from patent publication US20240207380A1, “NOVEL PEPTIDE TARGETING DENDRITIC CELLS, AND COMPOSITION FOR TREATING CANCER COMPRISING SAME” (INDUSTRY FOUNDATION OF CHONNAM NATIONAL UNIVERSITY, priority 2021, published 2024).

Protein sequences, listed by entry. Tags and fused reporters are not part of them. Residues count along the entry.
UniProt O60602, 21-858: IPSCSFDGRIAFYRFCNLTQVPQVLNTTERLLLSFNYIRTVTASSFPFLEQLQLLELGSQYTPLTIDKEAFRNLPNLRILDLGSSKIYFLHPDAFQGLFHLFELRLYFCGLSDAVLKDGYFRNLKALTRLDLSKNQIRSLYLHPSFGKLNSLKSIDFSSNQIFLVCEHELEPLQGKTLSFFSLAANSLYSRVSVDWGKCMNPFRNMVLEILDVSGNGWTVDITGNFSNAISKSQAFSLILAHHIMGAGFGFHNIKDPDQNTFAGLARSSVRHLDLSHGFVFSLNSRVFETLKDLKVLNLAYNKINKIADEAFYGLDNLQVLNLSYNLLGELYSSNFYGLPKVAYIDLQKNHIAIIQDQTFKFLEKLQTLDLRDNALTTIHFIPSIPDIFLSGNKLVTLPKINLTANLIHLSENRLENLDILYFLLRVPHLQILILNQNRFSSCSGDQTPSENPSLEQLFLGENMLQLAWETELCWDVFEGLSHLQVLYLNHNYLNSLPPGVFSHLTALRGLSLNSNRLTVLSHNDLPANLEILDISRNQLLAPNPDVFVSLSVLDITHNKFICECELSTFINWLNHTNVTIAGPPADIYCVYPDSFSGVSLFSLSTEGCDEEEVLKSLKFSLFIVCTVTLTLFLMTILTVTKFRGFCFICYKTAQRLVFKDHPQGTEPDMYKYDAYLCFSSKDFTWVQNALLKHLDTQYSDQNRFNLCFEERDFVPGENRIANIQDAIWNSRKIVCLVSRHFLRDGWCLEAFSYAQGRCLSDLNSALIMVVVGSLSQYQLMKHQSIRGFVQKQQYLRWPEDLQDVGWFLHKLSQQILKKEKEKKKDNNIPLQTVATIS

This test addresses T1, TLR5 (Homo sapiens, UniProt O60602).
T1 construct: host or cells: HEK-Blue hTLR5 cells (HEK293-derived reporter line, own knowledge: stably transfected with the human TLR5 gene and an NF-kB-inducible SEAP reporter)
Type of test: cell-based. To be noted: HEK-Blue hTLR5 cells, triplicate OD 620 nm, 0.0375 nM-19.29 nM. The method, then:
By using HEK-Blue™ hTLR5 cells (InvivoGen, hKb-htlr-5) and HEK-Blue™ Detection (InvivoGen, hb-det2) assay systems, 4×E7ΔNLS::FlaB (EF) and DCpep6::4×E7ΔNLS::FlaB (DEF) were measured for TLR5-dependent NF-κB-stimulating activity. Also, the EC50 was calculated using triplicate OD 620 nm values for each protein concentration over a wide range of protein concentrations (0.0375 nM-19.29 nM at the AAT Bioquest website).

As for “FlaB: flagellin B (FlaB) derived from Vibrio vulnificus, SEQ ID NO: 23”, the EC50 – broadly, the concentration that produces a half-maximal response – stood at 0.73 nM.
